Measured values from patent publication US20250170265A1 (priority 2023, published 2025).

Test: Stability of diazonium compounds (NMR in D2O with acetonitrile internal standard)
Type: physicochemical

Question: For “tetrakis(benzene-4-diazonium)methane tetrafluoroborate [Compound 28]”, which diazonium/IS ratio (1 hour) is on record?
Answer: The diazonium/IS ratio was 0.68.

Question: And the diazonium/IS ratio (2 hours)?
Answer: Its diazonium/IS ratio is 0.67.

Question: What about the diazonium/IS ratio (6 hours) of the same substance?
Answer: The diazonium/IS ratio was 0.64.

Question: What about the diazonium/IS ratio (24 hours) of the same substance?
Answer: The diazonium/IS ratio was 0.54.

Question: What about the diazonium/IS ratio (T0 (immediately after sample preparation)) of the same substance?
Answer: Its diazonium/IS ratio is 0.68.
